# PubChem BioAssay AID539 (SRMLSC, 2006)
# The list shows a part of the results, in another mix than the full data. Calls of active or inactive are those of the source.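 Rule for the calls: active = top-ranked compounds by inhibition in the single 10 µM screen, taking a fixed number of the strongest; inactive = the rest, inconclusive results apart.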
# Test system: phosphomevalonate kinase (Streptococcus pneumoniae D39)
# Assay: phosphomevalonate kinase enzyme inhibition – biochemical, mevalonate pathway, pilot trial included, primary screen (AID 539);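 note: 0% = full reaction with DMSO carrier and 100% = background rate without enzyme reaction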
# Conditions: purified PMK, PK/LDH-coupled NADH absorbance 340 nm; at 10 µM; stronger effect = higher value
row,SMILES,inhibition
1,COc1ccccc1OP(C)(=O)Nc1ccc(C)cc1 (configuration not stated),inactive: 0%
2,Cc1ccc(NP(C)(=O)Oc2ccccc2)c(C)c1 (configuration not stated),inactive: 8%
3,O=C(OC1CN2CCC1CC2)C12CC3CC(CC(C3)C1)C2 (configuration not stated),inactive: 8%
4,COP1(=S)c2c(C)nn(CCC#N)c2N=C(c2ccc(F)cc2)N1C (configuration not stated),inactive: 11%
5,O=C(COc1ccccc1)OC1CN2CCC1CC2 (configuration not stated),inactive: 5%
6,CP(=O)(NC(=O)Nc1ccccc1)Oc1ccccc1 (configuration not stated),inactive: 0%
7,CCOP(C)(=S)SCC(=O)NC(C)C(=O)O (configuration not stated),inactive: 10%
8,CP(=S)(Nn1cnnc1)Oc1ccccc1 (configuration not stated),inactive: 5%
9,Cc1nn(-c2ccccc2)c2c1P(=O)(N1CCOCC1)N(C)C(c1ccccc1)=N2 (configuration not stated),inactive: 9%
10,O=P1(Nc2ncccn2)COc2ccccc2OC1,inactive: 9%
11,Cc1ccc(OCC(=O)OC2CN3CCC2CC3)cc1 (configuration not stated),inactive: 3%
12,O=P1(Nc2ccc(Br)cn2)COc2ccccc2OC1,inactive: 8%
13,O=P1(Nc2ccccn2)COc2ccccc2OC1,inactive: 5%
14,Clc1n[nH]nc1-c1nn[nH][15n]1,inactive: 23%
15,Cc1nc2ccc3ccccc3c2s1.O=[N+]([O-])c1cc([N+](=O)[O-])c(O)c([N+](=O)[O-])c1,inactive: 8%
16,Cc1cccc(OCC(=O)OC2CN3CCC2CC3)c1 (configuration not stated),inactive: 8%
17,Cc1ccc(C)c(NP(C)(=O)Oc2ccccc2)c1 (configuration not stated),inactive: 14%
18,CCOP1(=S)c2c(C)nn(CCC#N)c2N=C(c2ccccc2F)N1C (configuration not stated),inactive: 10%
19,CCOP1(=S)c2c(C)nn(CCC#N)c2N=C(c2ccc(F)cc2)N1C (configuration not stated),inactive: 15%

row,SMILES,inhibition
1,COC(=O)c1cc2c(s1)N=C(c1ccccc1)N(C)P2(=O)N1CCOCC1 (configuration not stated),inactive: 5%
2,O=P1(Nc2nc3ccc(Cl)cc3s2)COc2ccccc2O1 (configuration not stated),inactive: 3%
3,CP(=O)(Nc1ccccc1F)Oc1ccccc1 (configuration not stated),inactive: 4%
4,O=P(Nc1nccs1)(c1ccccc1)c1ccccc1,inactive: 10%
5,c1nnnn1CCn1cnnn1,inactive: 4%
6,CCOP(C)(=S)SCC(=O)NC(C)(CC)C(=O)O (configuration not stated),inactive: 3%
7,CP(=O)(Nc1ccc2c(c1)OCCO2)Oc1ccccc1 (configuration not stated),inactive: 4%
8,Cc1ccccc1NP(C)(=O)Nc1ccccc1C,inactive: 10%
9,CN(C)CCOC(=O)C(O)(c1ccccc1)C1CCCCC1 (configuration not stated),inactive: 3%
10,O=C(OC1CN2CCC1CC2)c1cccc(Cl)c1 (configuration not stated),inactive: 10%
11,CCN(CC)CC(O)COC(=O)C(O)(c1ccccc1)C1CCCCC1 (configuration not stated),inactive: 2%
12,CP(=O)(Oc1ccccc1)N1CCOC1=O (configuration not stated),inactive: 14%
13,CCc1nc2c(n1)c1c(non1O)c1c2no[n+]1[O-],inactive: 0%
14,COc1ccccc1OP(C)(=O)Nc1c(C)n(C)n(-c2ccccc2)c1=O (configuration not stated),inactive: 2%
15,Cc1c2non([O-])c-2c(C)[n+](=O)[n+]1[O-],inactive: 0%
16,CP(=O)(Nc1ccccn1)Oc1ccccc1 (configuration not stated),inactive: 0%
17,COc1ccccc1OP(C)(=O)Nc1ccc(C)c(C)c1 (configuration not stated),inactive: 3%
18,Cc1nc2ccc3ccccc3c2o1.O=[N+]([O-])c1cc([N+](=O)[O-])c(O)c([N+](=O)[O-])c1,inactive: 9%
